# Values quoted from earlier work as cited in patent US9072741B2, “Methods of treating liver fibrosis and pre-cirrhosis with epidermal growth factor receptor inhibitors” (The General Hospital Corporation, priority 2009, dated 2015).
# Test system: advanced HCC
# Conditions: clinical trial (Zhu et al.); cited from earlier work
substance,measurement,value
cetuximab: monoclonal antibody that selectively binds to the EGFR (Erbitux),responses in advanced HCC patients,no responses were seen
